# Data as given in article PMC8625570.
# Biological target: RAC1 (aa 1-179) (human) (UniProt P63000)
# Assay: SEC; analytical SEC, Superdex 200 10/300, 30 mM Tris/HCl pH 7.5, 150 mM NaCl, 5 mM MgCl2; IQGAP1^C794 and IQGAP2^C795 alone or mixed with CDC42•GppNHp or RAC1•GppNHp; fractions on Coomassie-stained SDS-PAGE; MW from a calibration curve
substance,measurement,value
RAC1 (aa 1-179) (from UniProt P63000 1-179) (natural protein),stoichiometry N,2
